AlphaSeq binding of Ab-14 light chain variants to a spike HR2 peptide

Target: peptide PDVDLGDISGINAS, taken from heptad repeat 2 (HR2) of SARS-CoV-2 spike.

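The parent was found by panning a naive human phage display library on the peptide. Variants in AAYL50 differ from the parent at up to three CDR positions; double and triple changes were sampled at random. The assay is AlphaSeq: two haploid yeast populations carry antibody and antigen on their surface. Mating (16 h, 30 °C) was followed by selection of diploids and sequencing of their barcodes. Each replicate has its own calibration line, from reference interactions of the BCL2 family. Mating was done three times.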

Each scFv is VH, three GGGGS repeats, VL, as in the parent Ab-14, and differs from it in the CDRs of the light chain only.
VH: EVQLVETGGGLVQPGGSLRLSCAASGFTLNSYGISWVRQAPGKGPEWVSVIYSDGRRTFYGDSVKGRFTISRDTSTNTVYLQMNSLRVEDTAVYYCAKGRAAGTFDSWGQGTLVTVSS
VL: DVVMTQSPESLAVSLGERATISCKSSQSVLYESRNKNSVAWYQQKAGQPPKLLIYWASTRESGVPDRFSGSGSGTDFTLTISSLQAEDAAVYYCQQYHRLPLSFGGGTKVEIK

The whole VL of each variant is written out. All variants listed here change H98 of the VL, counted from its first residue. The Kd shown is the geometric mean over detected replicates; a lower Kd is a better binder. "nd" means that the variant was in the library but no mating with the target was seen in any replicate; the authors take this as a sign of poor binding, and no number exists.

- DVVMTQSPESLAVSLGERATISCKSSQSVLYESRNKNSGAWYQQKAGQPPKLLIYWAKTRESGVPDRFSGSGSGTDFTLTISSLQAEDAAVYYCQQYIRLPLSFGGGTKVEIK: nd (0 of 3 replicates)
- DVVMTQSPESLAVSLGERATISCKSSQSVLYESRNKNLVAWYQQKAGQPPKLLIYWASTRESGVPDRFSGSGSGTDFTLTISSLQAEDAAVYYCQQYLRLPLRFGGGTKVEIK: nd (0 of 3 replicates)
- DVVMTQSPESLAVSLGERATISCKSSQSVLYESRNKNSVAWYQQKAGQPPKLLIYWASTRESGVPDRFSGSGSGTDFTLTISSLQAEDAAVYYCQQYPKLPLAFGGGTKVEIK: 30 µM (2 of 3 replicates)
- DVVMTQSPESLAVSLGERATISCKSSQSVLYEPRNKNSVAWYQQKAGQPPKLLIYWASTRESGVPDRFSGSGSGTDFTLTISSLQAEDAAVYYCQLYDRLPLSFGGGTKVEIK: 63 nM (3 of 3 replicates)
- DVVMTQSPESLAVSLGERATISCKSSQSVLYESRFKNSVAWYQQKAGQPPKLLIYWASTRNSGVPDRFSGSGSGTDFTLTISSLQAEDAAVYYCQQYPRLPLSFGGGTKVEIK: 28 nM (3 of 3 replicates)
- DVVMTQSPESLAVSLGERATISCKRSQSVYYESRNKNSVAWYQQKAGQPPKLLIYWASTRESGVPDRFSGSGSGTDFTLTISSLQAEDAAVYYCQQYYRLPLSFGGGTKVEIK: 73 nM (3 of 3 replicates)
- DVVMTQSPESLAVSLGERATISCKSSQSVLYESRKKNSVAWYQQKAGQPPKLLIYWISTRESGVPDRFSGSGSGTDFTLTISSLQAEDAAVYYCQQYSRLPLSFGGGTKVEIK: nd (0 of 3 replicates)
- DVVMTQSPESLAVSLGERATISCKSSQEVLYESRNKNSVAWYQQKAGQPPKLLIYPASTRESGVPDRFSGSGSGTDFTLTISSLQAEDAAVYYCQQYQRLPLSFGGGTKVEIK: nd (0 of 3 replicates)
- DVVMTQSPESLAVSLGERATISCKSSQSVLYESRNKNSVAWYQQKAGQPPKLLIYWASTRESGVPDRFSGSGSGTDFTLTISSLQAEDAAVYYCQLYSRLPSSFGGGTKVEIK: 5.7 nM (3 of 3 replicates)
- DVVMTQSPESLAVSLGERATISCKSSHSVLYESRNKNSVAWYQQKAGQPPKLLIYWASTREWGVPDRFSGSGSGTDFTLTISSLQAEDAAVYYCQQYIRLPLSFGGGTKVEIK: 70 nM (3 of 3 replicates)
- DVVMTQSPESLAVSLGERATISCKSSQSVLYESRNKNSVAWYQQKAGQPPKLLIYWASTRTSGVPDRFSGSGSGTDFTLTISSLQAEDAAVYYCQQYPKLPLSFGGGTKVEIK: nd (0 of 3 replicates)
- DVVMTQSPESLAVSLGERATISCKSSQSVLYESRNKNSVAWYQQKAGQPPKLLIYWASTRESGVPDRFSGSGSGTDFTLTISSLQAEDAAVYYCPQYLRLPLSFGGGTKVEIK: nd (0 of 3 replicates)
- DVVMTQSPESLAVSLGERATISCKSSQSVFYESRNKNSVAWYQQKAGQPPKLLIYWASTRESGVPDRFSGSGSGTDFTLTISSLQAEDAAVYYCQQYGRLPISFGGGTKVEIK: 16 nM (3 of 3 replicates)
- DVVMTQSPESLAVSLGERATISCKSSQSVLYESRNKNSVAWYQQKAGQPPKLLIYWADTRESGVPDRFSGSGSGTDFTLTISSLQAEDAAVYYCQSYNRLPLSFGGGTKVEIK: 33 nM (3 of 3 replicates)
- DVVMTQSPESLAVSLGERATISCKSSQSVLYESRMKNSVAWYQQKAGQPPKLLIYWASTREWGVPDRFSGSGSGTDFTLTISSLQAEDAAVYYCQQYKRLPLSFGGGTKVEIK: 3.2 µM (3 of 3 replicates)
- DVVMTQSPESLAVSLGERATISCKSCQSVLYESRNKNSVAWYQQKAGQPPKLLIYWASTRESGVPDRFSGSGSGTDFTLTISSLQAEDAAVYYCQQYKRLTLSFGGGTKVEIK: 180 nM (1 of 3 replicates)

Picked from the list: the 2 lowest averages where every replicate gave a value.

| VL | Kd | replicates with signal |
|---|---|---|
| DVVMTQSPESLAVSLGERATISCKSSQSVLYESRNKNSVAWYQQKAGQPPKLLIYWASTRESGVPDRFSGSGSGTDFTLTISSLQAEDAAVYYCQLYSRLPSSFGGGTKVEIK | 5.7 nM | 3/3 |
| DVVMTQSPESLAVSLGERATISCKSSQSVFYESRNKNSVAWYQQKAGQPPKLLIYWASTRESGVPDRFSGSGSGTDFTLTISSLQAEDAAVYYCQQYGRLPISFGGGTKVEIK | 16 nM | 3/3 |

Background: pairings of library AAYL50 with three empty control strains gave a value in 18% of cases (median 15 µM, 5th percentile 970 nM). Values in that range, when seen in few replicates, are hard to tell from nonspecific mating.

Source: Engelhart et al. 2022 (doi:10.1038/s41597-022-01779-4), MIT Lincoln Laboratory and A-Alpha Bio; data file from the FLAb repository.